# Earlier results, collected in patent US20090226898A1, “Mitochondrial markers of ischemia” (Inverness Medical Switzerland GMBH, priority 2005, published 2009).
# By UniProt entry, the sequences of proteins in these tests, tags left out. Where a name states a change or a piece, a line headed by the entry shows the natural chain unless it says otherwise.
# UniProt P25090: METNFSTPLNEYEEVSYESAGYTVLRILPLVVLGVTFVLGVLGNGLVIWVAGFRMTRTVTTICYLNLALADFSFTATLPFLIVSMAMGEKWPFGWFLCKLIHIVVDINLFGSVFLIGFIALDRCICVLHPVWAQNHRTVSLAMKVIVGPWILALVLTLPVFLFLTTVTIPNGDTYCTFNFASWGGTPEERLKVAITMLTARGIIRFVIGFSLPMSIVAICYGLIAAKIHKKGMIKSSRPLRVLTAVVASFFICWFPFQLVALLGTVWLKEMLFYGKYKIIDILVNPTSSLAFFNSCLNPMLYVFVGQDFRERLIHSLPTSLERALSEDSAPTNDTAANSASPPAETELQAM
# Biological target: FPR-like 1 (FPRL1) (Homo sapiens, UniProt P25090)
substance,measurement,value
formyl-Met-Leu-Phe [fMLP],receptor activation,only activated by high (micromolar) concentrations
